Results on 2 substances are retold here after patent US8426383B2, “Anti-aging composition for external use comprising low and high molecular weight hyaluronic acids and the polysaccharides extracted from root bark of Ulmus davidiana” (Bioland Ltd., priority 2008, dated 2013).

The subject of this series is Caco-2 cells.

In the case of “hyaluronic acid [high-molecular weight hyaluronic acid]”, the “Penetration into the cell layer” value is on record as “hardly penetrated”. The value for “hyaluronic acid [low-molecular weight hyaluronic acid]” was 16.0%.
